The source of these data is patent publication US20030181447A1, “3-(Diarylmethylene)-8-azabicyclo[3.2.1]octane derivatives” (priority 2001, published 2003).

The chains behind the UniProt entries cited, without tags or fusion partners. Where a name states a change or a piece, a line headed by the entry shows the natural chain unless it says otherwise.
UniProt P33533, whole entry: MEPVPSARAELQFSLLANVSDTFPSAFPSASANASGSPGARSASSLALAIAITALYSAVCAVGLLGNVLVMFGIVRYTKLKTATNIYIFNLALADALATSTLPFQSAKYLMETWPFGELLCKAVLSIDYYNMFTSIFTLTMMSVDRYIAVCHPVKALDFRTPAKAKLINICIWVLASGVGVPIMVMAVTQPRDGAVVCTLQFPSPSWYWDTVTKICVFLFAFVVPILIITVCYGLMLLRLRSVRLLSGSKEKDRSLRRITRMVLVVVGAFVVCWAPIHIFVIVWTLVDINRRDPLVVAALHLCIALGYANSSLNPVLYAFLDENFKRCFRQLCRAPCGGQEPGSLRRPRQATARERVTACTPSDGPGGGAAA

Molecules are shown by their SMILES. Counter-ions that a name gives are not always drawn.

The target in this assay is δ-opioid receptor (Rattus norvegicus, UniProt P33533). The experiment in a line: biochemical. The note with it: δ Ki (nM), rat forebrain membrane preparation, [3H]DPDPE, 25° C.

The Ki is a dissociation constant, usually derived from enzyme kinetics or from competition with a known ligand. Read a low Ki as tighter binding. The compound `CCN(CC)C(=O)c1ccc(C(=C2CC3CCC(C2)N3CCc2ccccc2)c2ccccc2)cc1` (single isomer, unassigned; (-)) [Example 23] showed a Ki of 0.23 nM.

`CCN(CC)C(=S)c1ccc(C(=C2CC3CCC(C2)N3CCc2ccccc2)c2ccccc2)cc1` (single isomer, unassigned; (-)) [Example 25] came in with an inhibition constant Ki of 9.9 nM. In turn, `CCN(CC)C(=O)c1ccc(C(=C2CC3CCC(C2)N3C)c2ccccc2)cc1.Cl` [Example 1, N,N-Diethyl-4-[(8-methyl-8-azabicyclo[3.2.1]oct-3-ylidene)phenylmethyl]benzamide Hydrochloride [1:1]] displayed a Ki of 1.2 nM. On to `CCN(CC)C(=O)c1ccc(C(=C2CC3CCC(C2)N3)c2ccccc2)cc1.Cl` [Example 2, N,N-Diethyl-4-[(8-azabicyclo[3.2.1]oct-3-ylidene)phenylmethyl]benzamide Hydrochloride [1:1]], for which the Ki turned out to be 0.1 nM. Compound `C=CCN1C2CCC1CC(=C(c1ccccc1)c1ccc(C(=O)N(CC)CC)cc1)C2` [Example 5, N,N-Diethyl-4-[(8-allyl-8-azabicyclo[3.2.1]oct-3-ylidene)phenylmethyl]benzamide Hydrochloride [1:1]] had a Ki of 0.06 nM. The figure for `CCN(CC)C(=O)c1ccc(C(=C2CC3CCC(C2)N3CCc2ccc(F)cc2)c2ccccc2)cc1` [Example 7] is 2.6 nM; for `CCN(CC)C(=O)c1ccc(C(=C2CC3CCC(C2)N3CCc2cccs2)c2ccccc2)cc1` [Example 8] it is 13 nM; for `CCN(CC)C(=O)c1ccc(C(=C2CC3CCC(C2)N3CCc2c[nH]c3ccccc23)c2ccccc2)cc1` [Example 9] it is 3.5 nM. In the case of `CCN(CC)C(=O)c1ccc(C(=C2CC3CCC(C2)N3CCC2CCCCC2)c2ccccc2)cc1` [Example 10] it was 1.4 nM. The compound `CCN(CC)C(=O)c1ccc(C(=C2CC3CCC(C2)N3CCn2nnn(CC)c2=O)c2ccccc2)cc1` [Example 12] gave a Ki of 18.5 nM. Compound `CCN(CC)C(=O)c1ccc(C(=C2CC3CCC(C2)N3CC(=O)c2ccccc2)c2ccccc2)cc1` [Example 13] returned a Ki of 6.3 nM. Regarding `CCN(CC)C(=O)c1ccc(C(=C2CC3CCC(C2)N3CC(=O)c2ccc(OC)cc2)c2ccccc2)cc1` [Example 14], the Ki stood at 1.1 nM. In the case of `CCN(CC)C(=O)c1ccc(C(=C2CC3CCC(C2)N3CC(=O)c2cccc(C#N)c2)c2ccccc2)cc1` [Example 15] it was 6.8 nM. In the case of `CCN(CC)C(=O)c1ccc(C(=C2CC3CCC(C2)N3CC(=O)c2ccc3c(c2)OCCCO3)c2ccccc2)cc1` [Example 17] it was 0.23 nM. For `CCN(CC)C(=O)c1ccc(C(=C2CC3CCC(C2)N3CCc2ccccc2)c2ccccc2)cc1` [Example 19], the affinity, expressed as Ki, was 0.7 nM. As for `CCN(CC)C(=O)c1ccc(C(=C2CC3CCC(C2)N3Cc2ccc3c(c2)OCO3)c2ccccc2)cc1` [Example 20], the inhibition constant (Ki) was 0.01 nM. The figure for `CN(C(=O)c1cccc(C(=C2CC3CCC(C2)N3C)c2ccccc2)c1)c1cccc(F)c1.O=C(O)/C=C/C(=O)O` [Example 22, N-(3-Fluorophenyl)-N-methyl-3-[(8-methyl-8-azabicyclo[3.2.1]oct-3-ylidene)phenylmethyl]benzamide Fumarate [1:1]] is 92 nM. The figure for `CCNC(=O)c1ccc(C(=C2CC3CCC(C2)N3CCc2ccccc2)c2ccccc2)cc1` [Example 26, N-Ethyl-4-[(8-phenethyl-8-azabicyclo[3.2.1]oct-3-ylidene)phenylmethyl]benzamide] is 7.5 nM; for `O=C(c1ccc(C(=C2CC3CCC(C2)N3CCc2ccccc2)c2ccccc2)cc1)N1CCCC1` [Example 33] it is 24 nM; for `CC1CCCC(C)N1C(=O)c1ccc(C(=C2CC3CCC(C2)N3CCc2ccccc2)c2ccccc2)cc1` (stereo not shown) [Example 34] it is 11 nM. The figure for `CCCN(CCC)C(=O)c1ccc(C(=C2CC3CCC(C2)N3CCc2ccccc2)c2ccccc2)cc1` [Example 36] is 7.4 nM; for `O=C(Nc1nccs1)c1ccc(C(=C2CC3CCC(C2)N3CCc2ccccc2)c2ccccc2)cc1` [Example 39] it is 49 nM. With `O=C(NCc1nc2ccccc2[nH]1)c1ccc(C(=C2CC3CCC(C2)N3CCc2ccccc2)c2ccccc2)cc1` [Example 41], affinity was put at a Ki of 331 nM. In the case of `O=C(NC1CC1)c1ccc(C(=C2CC3CCC(C2)N3CCc2ccccc2)c2ccccc2)cc1` [Example 45] it was 19.8 nM. In the case of `CCNC(=O)c1ccc(C(=C2CC3CCC(C2)N3CCc2ccc3c(c2)OCO3)c2ccccc2)cc1` [Example 48, N-Ethyl-[[8-(2-Benzo[1,3]dioxol-5-ylethyl)-8-azabicyclo[3:2:1]oct-3-ylidene]phenylmethyl]benzamide] it was 48.2 nM; in that of `CCN(CC)C(=O)c1ccc(C(=C2CC3CCC(C2)N3CCc2ccc3c(c2)OCO3)c2ccccc2)cc1` [Example 49, N,N-Diethyl-[[8-(2-Benzo[1,3]dioxol-5-ylethyl)-8-azabicyclo[3:2:1]oct-3-ylidene]phenylmethyl]benzamide], 4.96 nM; in that of `CCNC(=O)c1ccc(C(=C2CC3CCC(C2)N3C)c2ccccc2)cc1` [Example 50, N-Ethyl-4-[(8-Methyl-8-azabicyclo[3.2.1]oct-3-ylidene)phenylmethyl]benzamide], 8.5 nM. The figure for `CCNC(=O)c1ccc(C(=C2CC3CCC(C2)N3)c2ccccc2)cc1` [Example 51, N-Ethyl-4-[(8-azabicyclo[3.2.1]oct-3-ylidene)phenylmethyl]benzamide] is 5.7 nM.

Consider `C=CCN1C2CCC1CC(=C(c1ccccc1)c1ccc(C(=O)NCC)cc1)C2` [Example 52, N-Ethyl-4-[(8-allyl-8-azabicyclo[3.2.1]oct-3-ylidene)phenylmethyl]benzamide], for which the Ki stood at 0.75 nM. In the case of `CCN(CC)C(=O)c1ccc(C(=C2CC3CCC(C2)N3CCc2ccc(OC)cc2)c2ccccc2)cc1` [Example 53, N,N-Diethyl-4-[[8-[2-(4-methoxyphenyl)ethyl]-8-azabicyclo[3:2:1]oct-3-ylidene]phenylmethyl]benzamide] it was 2.9 nM; in that of `COc1ccc(CCN2C3CCC2CC(=C(c2ccccc2)c2ccc(C(=O)N4CCOCC4)cc2)C3)cc1` [Example 54], 57 nM. In turn, `CCNC(=O)c1ccc(C(=C2CC3CCC(C2)N3CCc2ccc(OC)cc2)c2ccccc2)cc1` [Example 55] gave a Ki of 225 nM.

`COCCN(CCOC)C(=O)c1ccc(C(=C2CC3CCC(C2)N3CCc2ccc(OC)cc2)c2ccccc2)cc1` [Example 56] displayed a Ki of 24 nM. The figure for `COc1ccc(CCN2C3CCC2CC(=C(c2ccccc2)c2ccc(C(=O)N4CCCC4)cc2)C3)cc1` [Example 57] is 15 nM; for `COc1ccc(CCN2C3CCC2CC(=C(c2ccccc2)c2ccc(C(=O)N4C(C)CCCC4C)cc2)C3)cc1` (stereo not shown) [Example 58] it is 18 nM; for `C=C(C)CN(CC)C(=O)c1ccc(C(=C2CC3CCC(C2)N3CCc2ccc(OC)cc2)c2ccccc2)cc1` [Example 59] it is 3.9 nM. `CCCN(CCC)C(=O)c1ccc(C(=C2CC3CCC(C2)N3CCc2ccc(OC)cc2)c2ccccc2)cc1` [Example 60] returned a Ki of 12 nM. `COc1ccc(CCN2C3CCC2CC(=C(c2ccccc2)c2ccc(C(=O)N4C(C)(C)CCCC4(C)C)cc2)C3)cc1` [Example 61] returned a Ki of 15.5 nM. In turn, `COc1ccc(CCN2C3CCC2CC(=C(c2ccccc2)c2ccc(C(=O)N(C(C)C)C(C)C)cc2)C3)cc1` [Example 62] gave an inhibition constant Ki of 30.7 nM. The compound `CCN(CC)C(=O)c1ccc(C(=C2CC3CCC(C2)N3CCc2ccc(OC)cc2)c2ccc(OC)cc2)cc1` [Example 67, N,N-Diethyl-4-[(4-methoxyphenyl)-[8-[2-(4-methoxyphenyl)ethyl]-8-azabicyclo[3:2:1]oct-3-ylidene]methyl]benzamide] yielded a Ki of 24.7 nM. The figure for `CCN(CC)C(=O)c1ccc(C(=C2CC3CCC(C2)N3CCc2ccc(O)cc2)c2ccc(O)cc2)cc1` [Example 68, N,N-Diethyl-4-[(4-hydroxyphenyl)-[8-[2-(4-hydroxyphenyl)ethyl]-8-azabicyclo[3:2:1]oct-3-ylidene]methyl]benzamide] is 0.41 nM. Compound `CCNC(=O)c1ccc(C(=C2CC3CCC(C2)N3CCc2ccc(O)cc2)c2ccccc2)cc1` [Example 69, N-Ethyl-4-[[8-[2-(4-hydroxyphenyl)ethyl]-8-azabicyclo[3:2:1]oct-3-ylidene]phenylmethyl]benzamide] came in with a Ki of 1.08 nM.

Turning to `CCN(CC)C(=O)c1ccc(C(=C2CC3CCC(C2)N3CCc2ccc(O)cc2)c2ccccc2)cc1` [Example 70, N,N-Diethyl-4-[[8-[2-(4-hydroxyphenyl)ethyl]-8-azabicyclo[3:2:1]oct-3-ylidene]phenylmethyl]benzamide], the affinity, expressed as Ki, was 0.7 nM.
